Assays:
[1] = system: MCF7; assay: Cytotoxic activity was evaluated against MCF-7/ADR+Reserpine cells; assay type: functional, Homo sapiens
[2] = system: P388; assay: Cytotoxic activity was evaluated against P388D1/ADR cells; assay type: functional, Mus musculus
[3] = system: MCF7; assay: Cytotoxic activity was evaluated against MCF-7 cells; assay type: functional, Homo sapiens
[4] = system: KB; assay: Cytotoxic activity was evaluated against KBV-1 cells in presence of reserpine; assay type: functional, Homo sapiens
[5] = species: Mus musculus; assay: Relative concentration of compound in lung compared to concentration in plasma (0.4 ug/mL) at the time of tissue collection from mice; relative concentration
[6] = system: KB 3-1; assay: Cytotoxic activity was evaluated against KB3-1 cells; assay type: functional, Homo sapiens
[7] = system: MCF7; assay: Cytotoxic activity was evaluated against MCF-7/ADR cells; assay type: functional, Homo sapiens
[8] = system: P388; assay: Cytotoxic activity was evaluated against P388/ADR + reserpine cells; assay type: functional, Mus musculus
[9] = system: P388; assay: Cytotoxic Activity was evaluated against P388D1 cells; assay type: functional, Mus musculus
[10] = system: KB; assay: Cytotoxic activity was evaluated against KBV-1 cells; assay type: functional, Homo sapiens

Structure (SMILES)	Relative IC50 [1]	Relative IC50 [2] [pM]	Relative IC50 [3] [pM]	Relative IC50 [4]	Kp [5]	Relative IC50 [6]	Relative IC50 [7]	Relative IC50 [8] [pM]	Relative IC50 [9]	Relative IC50 [10]
CCC(CC)n1c(C)cc2c3c(N)nc(N)nc3ccc21	0.6	800	1000	0.8	50	1	0.9	900	1	1
CCC(CC)n1ccc2c3c(N)nc(N)nc3ccc21	0.7	–	1000	1.1	57	1	0.9	–	–	1.1

From ChEMBL document CHEMBL1129493 (J Med Chem, 1996)
